Molecular target: GST-VHL–EloBC complex (UniProt P40337 1-213; Q15370 1-118; Q15369 17-112)
Experiment: pull-down

Protein sequences, listed by entry. Tags and fused reporters are not part of them.
UniProt P40337, whole entry, chain 1 of 3: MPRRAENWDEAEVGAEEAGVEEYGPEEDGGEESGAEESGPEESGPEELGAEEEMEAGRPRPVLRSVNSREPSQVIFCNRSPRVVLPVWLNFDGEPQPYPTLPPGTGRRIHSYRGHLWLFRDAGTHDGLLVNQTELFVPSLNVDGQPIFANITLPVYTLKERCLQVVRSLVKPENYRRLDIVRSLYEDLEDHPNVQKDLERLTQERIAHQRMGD

B1: 6xHis-MBP-Cul2 (residues 1-277) (domain or fragment)
chain: MSLKPRVVDFDETWNKLLTTIKAVVMLEYVERATWNDRFSDIYALCVAYPEPLGERLYTETKIFLENHVRHLHKRVLESEEQVLVMYHRYWEEYSKGADYMDCLYRYLNTQFIKKNKLTEADLQYGYGGVDMNEPLMEIGELALDMWRKLMVEPLQAILIRMLLREIKNDRGGEDPNQKVIHGVINSFVHVEQYKKKFPLKFYQEIFESPFLTETGEYYKQEASNLLQESNCSQYMEKVLGRLKDEEIRCRKYLHPSSYTKVIHECQQRMVADHLQF
binding result: binds

— paper PMC4351159 (Structure (London, England : 1993), 2015)
